The chains behind the UniProt entries cited, without tags or fusion partners. Where a name states a change or a piece, a line headed by the entry shows the natural chain unless it says otherwise.
UniProt P08172, whole entry: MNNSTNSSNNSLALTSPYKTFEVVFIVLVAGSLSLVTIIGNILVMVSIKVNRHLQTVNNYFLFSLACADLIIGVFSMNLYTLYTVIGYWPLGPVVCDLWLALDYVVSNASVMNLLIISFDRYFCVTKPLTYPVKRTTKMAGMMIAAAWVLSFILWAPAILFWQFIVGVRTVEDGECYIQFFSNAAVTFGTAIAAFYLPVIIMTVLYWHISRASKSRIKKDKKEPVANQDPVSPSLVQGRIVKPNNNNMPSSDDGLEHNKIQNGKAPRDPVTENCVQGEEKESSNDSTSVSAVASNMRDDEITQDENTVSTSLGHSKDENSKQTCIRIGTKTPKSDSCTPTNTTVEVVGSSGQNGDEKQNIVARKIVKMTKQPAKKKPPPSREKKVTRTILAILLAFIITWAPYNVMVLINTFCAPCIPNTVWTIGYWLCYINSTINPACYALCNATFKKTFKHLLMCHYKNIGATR
UniProt P11229: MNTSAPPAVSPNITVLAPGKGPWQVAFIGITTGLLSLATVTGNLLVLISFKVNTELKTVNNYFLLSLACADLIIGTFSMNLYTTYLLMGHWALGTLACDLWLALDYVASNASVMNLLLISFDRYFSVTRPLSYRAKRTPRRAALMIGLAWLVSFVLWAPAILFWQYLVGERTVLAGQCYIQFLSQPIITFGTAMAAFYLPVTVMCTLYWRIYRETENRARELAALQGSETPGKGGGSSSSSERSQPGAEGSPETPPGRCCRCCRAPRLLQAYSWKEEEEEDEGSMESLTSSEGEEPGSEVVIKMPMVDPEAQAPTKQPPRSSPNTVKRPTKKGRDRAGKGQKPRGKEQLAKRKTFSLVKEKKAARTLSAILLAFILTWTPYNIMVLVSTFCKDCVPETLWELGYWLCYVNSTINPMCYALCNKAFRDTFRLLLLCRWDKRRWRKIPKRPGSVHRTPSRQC

In patent US20250228832A1, “METHODS FOR TREATING DISORDERS AMELIORATED BY MUSCARINIC RECEPTOR ACTIVATION” (KARUNA THERAPEUTICS, INC., priority 2022, published 2025):

Key:
human M2 receptor = human M2 receptor (Homo sapiens, UniProt P08172); assay: SPA GTP (GTPgS) binding curve shift assay, M2; format: biochemical
Procedure: Membranes were prepared for GTPgS binding assays from CHO-K1 cells stably expressing human M2 or human M4 receptors. Cells were grown in 5-layer cell culture flasks. Cells were washed with 50 mL of PBS and then dissociated with 0.05% trypsin. Dissociated cells were then collected by centrifugation at 650×g for 8 min at 4° C. Pellets were rewashed in PBS by centrifugation and resuspended in 30 mL of 20 mM HEPES, 10 mM EDTA, pH 7.4. After sitting on ice for 30 min, membranes were collected by centrifugation at 50000×g for 15 min at 4° C., resuspended in 30 mL of 20 mM HEPES, 0.1 mM EDTA, pH 7.4, and collected again by centrifugation. Pellets were then washed twice by centrifugation in 30 mL of 20 mM HEPES, pH 7.4, and stored at −80° C. until the day of the assay. On the day of the assay, pellets were thawed on ice and resuspended in 1 mL of 20 mM HEPES, pH 7.4, 10 mM MgCl2, and 100 mM NaCl using Dounce homogenization.
According to Promega guidelines, membrane protein concentration was determined by BCA protein assay (Promega, Madison, WI).
On the day of the assay, serial dilutions of test PAM compounds were brought up in assay buffer (20 mM HEPES, 10 mM MgCl2; see Table 4 for NaCl concentrations) at four times the final assay concentration. […] of membrane homogenates (containing […] of membrane protein) were prepared in assay buffer supplemented with GDP at 4× final assay concentration (see Table 4 for GDP concentrations) and dispensed into 96 well polypropylene, U-bottom Greiner plates. Membrane plates were incubated for 10 min at room temperature with gentle shaking. Then, 25 μL of test compounds were added to assay plates. Plates were then incubated, with shaking, for an additional 10-15 min. Then, 25 μL of diluted agonists serially diluted in assay buffer at 4× final assay concentration was added to assay plates. Plates were then incubated, with shaking, for an additional 10-15 min. Next, […] of 0.4 nM ^35S-GTP (Perkin Elmer, Waltham, MA) in assay buffer was added to assay mixtures. The binding reaction was left on the shaker for 1 h at room temperature. Membranes in assay reactions were then transferred to GF/C filter plates (UniFilter, Perkin Elmer) and washed three times using FilterMate Harvester (Perkin Elmer) with cold assay buffer containing no GDP. Filter plates were then dried at 40° C. overnight, and […] of Beta Plate Scintillation liquid was added. Plates were top and bottom sealed before being read on the TopCount scintillation counter (Perkin Elmer, Waltham, MA).
(§1) Raw data for all assays was transmitted directly from plate readers into the Beacon database for processing. All assay plates contained positive and negative control wells for data normalization and scaling. […] All control wells contained DMSO at a final assay concentration that matched the test compound wells.
For GTPgS assays, the negative control wells were defined as 0% response. The highest response in a plate was scaled to 1, representing 100% response. Data from test compound wells was scaled to these controls and are reported as % control values. This was done to allow for subsequent GraphPad cooperativity analysis, setting the maximal response at no more than 1.

human M1 receptor = biological target: T1, human M1 receptor (Homo sapiens, UniProt P11229); assay: HTRF IP-One curve shift assay, M1; format: cell-based
T1 construct: expressed in transfected cells
Procedure: HTRF IP-One assays were performed using frozen cell aliquots prepared from CHO-K1 cell lines stably expressing human M1, M3, or M5 receptors. Cells were frozen following typical cell freezing protocols. […] Dissociated cells were quenched in full media and collected by centrifugation at 290×g for 5 min. […] 1 mL aliquots of cells were dispensed into cryovial tubes and frozen in a controlled rate cryo-freezer container at −80° C. Cells were stored at −80° C. (or in liquid nitrogen if stored for at least six months) until the day of the assay.
On the day before the assay, frozen cells were rapidly thawed in a 37° C. water bath, brought up in 20 mL of full media, and collected via centrifugation at 290×g for 5 min. […] Next, […] of cells (10,000 cells/well) were dispensed into 384-well coming plates in triplicate. Cells were incubated overnight in a 37° C., 5% CO2 cell incubator.
Then, 2 μL of test compounds were added to the cells and incubated for 10 min at 37° C. in a 5% CO2 cell incubator. Next, 2 μL of diluted agonists serially diluted in assay buffer at 7× final assay concentration was added to assay plates. Finally, assay plates were incubated for two hours at 37° C. in a 5% CO2 cell incubator.
Six μL of IP-1 detection reagents (IP-One Gq HTRF kit, Cisbio Cat #62IPAPEJ) were dispensed to the cells. First, the plates were incubated for two hours at room temperature (IP-One detection reagents were made according to Cisbio protocol). Then, plates were read on an Envision plate reader following the Cisbio guidelines.
as §1
Counts from the standard curve wells were used to generate a sigmoidal standard curve, which was used to transform the raw counts from each well on the plate (scaling control wells and compound wells) into a pmol/well IP1 value.

[1] = Emraclidine concentration 41.2 nM
[2] = Emraclidine concentration 123 nM
[3] = Emraclidine concentration 370 nM
[4] = Emraclidine concentration 1110 nM
[5] = Emraclidine concentration 3330 nM

`CCCCCCOc1nsnc1C1=CCCN(C)C1` [xanomeline, reference compound] showed an EC50 (human M2 receptor; Emraclidine concentration 0 nM) of 41.1 nM, an EC50 (human M2 receptor; [1]) of 42.4 nM and an EC50 (human M2 receptor; [2]) of 36.4 nM. It also gave an EC50 (human M2 receptor; [3]) of 24 nM, an EC50 (human M2 receptor; [4]) of 33.2 nM and an EC50 (human M2 receptor; [5]) of 35.2 nM. For the same compound, the EC50 (human M2 receptor; Emraclidine concentration […]) was 24.6 nM, the EC50 (human M2 receptor; MK-4710 concentration 0 nM) was 28.5 nM and the Emax (human M1 receptor; Emraclidine concentration 0 nM) was 74.7%. It also gave an Emax (human M1 receptor; [1]) of 79.9%, an Emax (human M1 receptor; [2]) of 83.5% and an Emax at […] (human M1 receptor; [3]) of 87.3%. The Emax (human M1 receptor; [4]) was 90%, the Emax (human M1 receptor; [5]) was 87.9% and the Emax at […] (human M1 receptor; Emraclidine concentration […]) was 75.6%. For the same compound, the “τ (agonist pharmacology)” value (human M1 receptor; M4 PAM Emraclidine) was 0.0, the “τ (agonist pharmacology)” value (human M1 receptor; M4 PAM MK-4710) was −0.1 and the Emax (human M1 receptor; MK-4710 concentration 0 nM) was 78.2%. The Emax (human M1 receptor; MK-4710 concentration 41.2 nM) was 87.8%, the Emax (human M1 receptor; MK-4710 concentration 123 nM) was 88.1% and the Emax at […] (human M1 receptor; MK-4710 concentration 370 nM) was 85.9%. The Emax (human M1 receptor; MK-4710 concentration 1110 nM) was 81.4%, the Emax (human M1 receptor; MK-4710 concentration 3330 nM) was 78.4% and the Emax at […] (human M1 receptor; MK-4710 concentration […]) was 85.6%.
